Assay results reported in ChEMBL document CHEMBL1124743, “Development of a novel series of (2-quinolinylmethoxy)phenyl-containing compounds as high-affinity leukotriene receptor antagonists. 1. Initial structure-activity relationships” (J Med Chem, 1990).

System: Cysteinyl leukotriene receptor (Cavia porcellus)
Test: inhibition of the spasmogenic activity of LTD4 in guinea pig parenchymal strips at 10 uM.

Compound	inhibition [%]
c1ccc(OCc2ccc3ccccc3n2)c(OCCCc2nnn[nH]2)c1	10
c1ccc2nc(COCc3ccc(OCCCc4nnn[nH]4)cc3)ccc2c1	50
